## Binding of CDR-mutated scFvs to a peptide of the spike HR2 region

From the AlphaSeq antibody data of Engelhart et al. 2022 (doi:10.1038/s41597-022-01779-4), copy in the FLAb collection.

All variants were tested on one target, the spike HR2 peptide PDVDLGDISGINAS (SARS-CoV-2).

The variants keep the light chain, the linker and the frameworks of Ab-14 (scFv order VH, a 15-residue (Gly4Ser)3 linker, VL).
VH: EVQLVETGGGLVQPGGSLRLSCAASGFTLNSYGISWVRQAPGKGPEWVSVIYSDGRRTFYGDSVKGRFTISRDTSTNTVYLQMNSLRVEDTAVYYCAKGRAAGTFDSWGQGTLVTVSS
VL: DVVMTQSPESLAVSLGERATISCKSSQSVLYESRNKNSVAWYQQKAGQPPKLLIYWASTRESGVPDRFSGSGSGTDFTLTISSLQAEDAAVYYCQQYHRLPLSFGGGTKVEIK

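The parent was found by panning a naive human phage display library on the peptide. Library AAYL49 holds single substitutions and randomly drawn double and triple substitutions in the CDRs. The assay is AlphaSeq: two haploid yeast populations carry antibody and antigen on their surface. The frequency of each diploid, read from paired DNA barcodes, reflects how well the two displayed proteins bind. Each replicate has its own calibration line, from reference interactions of the BCL2 family. There are three technical replicates.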

The parent's heavy chain CDRs are GFTLNSYGIS, VIYSDGRRTFYGDSVK, GRAAGTFDS; each variant's own CDRs replace them letter for letter.
Values are log10 of the apparent Kd in nM; lower means stronger binding.
Replicates are averaged; those with no signal do not enter the mean.
"nd" marks a missing value. The strain was present, yet no cells mated with the target were sequenced in that replicate, which points to weak or no binding.
In this assay the parent's reference entry averaged 0.65; its copy inside this library read 4.11 (one replicate of three).

| CDR-H1 | CDR-H2 | CDR-H3 | replicates, log10 nM | log10 Kd (nM), mean |
|---|---|---|---|---|
| GFTLNSYGFS | VIYSDGRRTFDGDSVK | GRAAGTFDM | 5.79 3.51 4.51 | 4.60 |
| GWTLNSYGIS | VIKSDGRRTFYGDSVK | TRAAGTFDS | nd nd nd | nd |
| GPTLNSYGIF | VIYSDGRRTFPGDSVK | GRAAGTFDS | nd nd nd | nd |
| DFTLNSYGIS | VIYTTGRRTFYGDSVK | GRAAGTFDS | nd nd nd | nd |
| GFTLGSYGIS | VTYSDGRRTSYGDSVK | GRAAGTFDS | nd nd nd | nd |
| GFTLNSYGIS | VIYSDGRRTFYGDSTK | GRAGGTFPS | nd nd nd | nd |
| GFTLNSYPIS | VIYSDGRPTFYGDSVK | GMAAGTFDS | 3.59 4.12 5.70 | 4.47 |
| GFTLNNYGIS | VIYSDGRRTFIGDSVK | CRAAGTFDS | nd nd nd | nd |
| GFTLNSYGIS | VIYSDGRRTFYGESVK | GRTAGTFQS | 1.23 1.45 1.56 | 1.41 |
| GFTLNSAGIS | VIYSDGRRTFYGDSVK | GRAAGTFQM | nd 3.84 nd | 3.84 |
| GFELDSYGIS | VIYSKGRRTFYGDSVK | GRAAGTFDS | nd 3.66 5.75 | 4.71 |
| GFTANSYGIS | VIYSDGRRSFYGDSVK | GRAGGTFDS | nd nd nd | nd |
| GFTLNSYMIS | VIWSDGRRTFYGDSVK | GIAAGTFDS | nd nd 4.03 | 4.03 |
| GFTSQSYGIS | VKYSDGRRTFYGDSVK | GRAAGTFDS | nd nd nd | nd |
| GFDLTSYGIS | VWYSDGRRTFYGDSVK | GRAAGTFDS | nd nd nd | nd |
| GVTLISYGIS | VIYSDGRRTFYGDSVK | GRAAGTFDS | nd nd nd | nd |
| QFTLNSYLIS | VIYSDGRRTFYGDSVK | GRAAGYFDS | nd 2.93 5.17 | 4.05 |
| GFTLNSYGIS | VSYSDGRRTFYGDSPT | GRAAGTFDS | nd nd nd | nd |
| GFTLNSYGGS | VIYSDGRRLFYGDSVK | GRAAGTFMS | 2.74 nd nd | 2.74 |
| GFTINSYGIS | IIRSDGRRTFYGDSVK | GRAAGTFDS | 3.73 3.81 3.77 | 3.77 |
| GFTLNSYGIS | VIYSDGPITFAGDSVK | GRAAGTFDS | nd nd nd | nd |
| GFTLNSYGHS | VIYSDGRRTFYGDSVH | GGAAGTFDS | nd nd nd | nd |
| AFTLNSYGIS | VIYSDGRRTFYGDSCK | NRAAGTFDS | nd nd 6.06 | 6.06 |
| GFTLGSYDIS | VIYYDGRRTFYGDSVK | GRAAGTFDS | nd nd nd | nd |
| GFTLNSYGAS | VIYSDGRRTFYGVSVK | GRAAGTFPS | nd nd nd | nd |
| GFTLNSYDIS | VIGSDGRRTFYGDSVK | GRAAATFDS | nd nd nd | nd |
| GQALNSYGIS | VIYYDGRRTFYGDSVK | GRAAGTFDS | 1.98 1.78 2.35 | 2.04 |
| GFTLVSYGIN | VIVSDGRRTFYGDSVK | GRAAGTFDS | nd nd nd | nd |
| GQTLNSYGIS | VIYSDGRRTFYGDAVK | GRAAGTFDG | nd 4.45 nd | 4.45 |
| GFTFNSYRIS | VIYSDGRRTFYGDSVK | GRAAGLFDS | nd 4.50 nd | 4.50 |
| GFTLNSYMIS | VIYSDGRRTFYGDNVK | GRAAGTFDS | nd nd nd | nd |
| GFTLNSKGYS | VIYVDGRRTFYGDSVK | GRAAGTFDS | nd nd nd | nd |
| GFTLKSYGIS | VIYSDGRRTFYGDSEK | GRTAGTFDS | 4.35 4.56 nd | 4.45 |
| GFTLNSYGIS | FIYSKGRRTFYGDSVK | NRAAGTFDS | nd 3.90 nd | 3.90 |
| GFTLNSYGIS | VIYSDGRRTFYGDSVS | WRAAGTFHS | 1.32 1.31 1.43 | 1.35 |
| GFTLNSYGIS | VIYSDGRRTEYGDSVH | GRAFGTFDS | 3.72 2.83 2.96 | 3.17 |
| GFTLNSYGIS | VIYLDGERTFYGDSVK | GRAAGGFDS | nd nd 4.88 | 4.88 |
| GFTLNSYGIS | VIYSDGRRTFYGDLVP | GRAAGTFDL | 5.77 4.12 nd | 4.95 |

The first 4 variants above that were never detected:

| CDR-H1 | CDR-H2 | CDR-H3 | replicates, log10 nM | log10 Kd (nM), mean |
|---|---|---|---|---|
| GWTLNSYGIS | VIKSDGRRTFYGDSVK | TRAAGTFDS | nd nd nd | nd |
| GPTLNSYGIF | VIYSDGRRTFPGDSVK | GRAAGTFDS | nd nd nd | nd |
| DFTLNSYGIS | VIYTTGRRTFYGDSVK | GRAAGTFDS | nd nd nd | nd |
| GFTLGSYGIS | VTYSDGRRTSYGDSVK | GRAAGTFDS | nd nd nd | nd |

As a blank, each scFv also met three strains without target: over library AAYL49, 15% of these pairings were detected, typically at 4.06 and seldom below 2.83.